The structures appear in SMILES notation. This is a selection; strong and weak results do not stand in their true shares. Results filed as inconclusive are left out. The source made the active and inactive calls. Calls follow the shape of the dose curve; as a rule, active = well fitted inhibition curve with a large enough effect (not every such curve was filed as active); inconclusive = small, poorly fitted or top-dose-only effect, or another doubt; inactive = no such curve, though single readings can be large or run the other way.

Sequences of proteins named here, by UniProt entry; tags and fusion partners are left off. A change or cut given only in a name is not applied to a line headed by its entry.
UniProt P15428: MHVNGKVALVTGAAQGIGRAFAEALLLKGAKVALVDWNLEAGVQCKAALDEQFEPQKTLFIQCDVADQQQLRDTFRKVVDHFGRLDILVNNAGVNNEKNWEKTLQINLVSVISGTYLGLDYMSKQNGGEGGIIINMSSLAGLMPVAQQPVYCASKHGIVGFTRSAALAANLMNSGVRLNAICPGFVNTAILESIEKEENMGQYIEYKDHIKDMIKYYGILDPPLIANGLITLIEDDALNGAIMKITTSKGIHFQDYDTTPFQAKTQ

This passage reports Potency results from PubChem BioAssay AID894 (National Center for Advancing Translational Sciences (NCATS), 2007).
Potency is read from the fitted curve at half-maximal effect.

In this assay the target is 15-hydroxyprostaglandin dehydrogenase [NAD(+)] (Homo sapiens) (UniProt P15428). Nature of the assay: qHTS Assay for Inhibitors of HPGD (15-Hydroxyprostaglandin Dehydrogenase). As to conditions: purified HPGD, NADH fluorescence kinetic, PGE2 substrate.
For `O=P1(Nc2ccccn2)COc2ccccc2OC1`, the Potency was active: 5.62 µM.
For `O=P1(Nc2ncccn2)COc2ccccc2OC1` the value was active: 25.1 µM; for `O=P1(Nc2ccc(Br)cn2)COc2ccccc2OC1`, active: 15.8 µM; for `O=P(Nc1nccs1)(c1ccccc1)c1nc2ccccc2s1` (configuration not stated), active: 0.891 µM.
For `Oc1c(Cl)c(Cl)c(Cl)c(Cl)c1Cl` the value was active: 14.1 µM; for `Cc1c2c(nc3ccccc13)SC(C(Cl)Cl)C2` (configuration not stated), active: 25.1 µM.
The same measure for `Cc1cc(SC(NC(=O)c2ccccc2)C(Cl)(Cl)Cl)nc(C(C)C)n1` (configuration not stated): active: 17.8 µM.
